The series is described as follows: Critical micelle concentration (CMC) in water by the stalagmometric method (surface tension vs. concentration). It counts as physicochemical. How it is done: CMC of mono and di-hydrophilic moiety derivatized betulin derivatives were determined according to the stalagmometric method, which is one of the most common methods for measuring surface tension. Samples were prepared at different concentration of mono and di-hydrophilic moiety derivatized betulin derivatives. The surface tension of samples was calculated from the number of drops obtained by stalagmometer. CMC was calculated by plotting surface tensions vs. concentrations of sample.
CMCs of mono-glycosylated betulin, di-glycosylated betulin, mono-(poly) ethoxylated-carbonated betulin and di-(poly) ethoxylated betulin were determined in water, respectively. Surface tensions of samples obtained in above examples were determined at different concentrations according to the stalagmometric method. […]
CMC of mono-hydrophilic moiety derivatized betulin derivatives were determined according to the stalagmometric method, which is one of the most common methods for measuring surface tension. […] The surface tension of samples was calculated from the number of drops obtained by stalagmometer. CMC was calculated by plotting surface tensions vs. concentrations of sample.
CMCs of two mono-hydrophilic functionalized betulin at C28-hydroxy and C3-hydroxy group were determined in water, respectively. […]

For two substances, CMC results are on record in patent US20250154195A1, “NOVEL BETULIN DERIVATIVES, AND THEIR MANUFACTURING METHOD AND USE AS SURFACTANT” (priority 2022, published 2025).

As to di-(poly) ethoxylated betulin, the CMC turned out to be 0.7 mM. Substance “mono-(poly) ethoxylated-carbonated betulin” registered a CMC of 0.6 mM.
